# Experimental data: PubChem BioAssay (NCATS)
# This is a selection; strong and weak results do not stand in their true shares. Records with an inconclusive call do not appear. Active and inactive are the calls of the source. The call rests on the fitted dose curve; in most records, active means well fitted curve in either direction with a large enough effect (not every such curve was filed as active); inconclusive means small, poorly fitted or top-dose-only effect, or another doubt; inactive means flat fitted curve, though single readings scatter.
# Target: Mitogen-activated protein kinase 10 (Mus musculus) (UniProt Q61831)
# Test: JNK3 AlphaScreen Assay (AID 530);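 further: kinase came from lysate of stimulated human HepG2 cells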
# Settings: JNK3 lysate, c-Jun phosphorylation; at 57.1 µM (top of the series) unless noted
# Source text: NIH Chemical Genomics Center [NCGC]
# NIH Molecular Libraries Screening Centers Network [MLSCN]
# The c-jun N-terminal kinase (JNK) family are serine/threonine protein kinases that phosphorylate c-jun, a component of the transcription factor […] (AP-1). JNK kinases are members of the mitogen-activated protein kinase family including the extracellular regulated kinases and p38 kinases. Three JNK genes (JNK 1, 2, and 3) have been identified in humans so far. JNK1 and JNK2 have a broad distribution and JNK3 is primarily found in neuronal tissues and cardiac myocytes.
# JNK3 has been under consideration as a target for the treatment of neurodegenerative disorders. […] JNK pathway is also involved in pathological process in a mouse model of Parkinson's disease (Xia et al., 2001).
# Given these potential tissue distributions and links to neuroprotection, JNK3 inhibitors should provide useful investigational tools to study the role of this kinase in several diseases including, arthritis, stroke, myocardial infarction, ischemic injury and Parkinson's disease.
# A homogeneous AlphaScreen is developed to measure the activity of JNK3. AlphaScreen is a two bead-based proximity-dependent chemical energy transfer luminescent assay platform. The phosphorylation of a biotinylated c-jun substrate by JNK3 can be detected with an antibody raised against phosphorylated c-jun. This process brings streptavidin donor beads and Protein-A acceptor beads to within a proximity range of <200 nm, and subsequently lead a chemical luminescent reaction upon exciting donor beads with 680 nm laser excitation light. Inhibition of JNK3 activity by small molecules and subsequent decrease in the antibody binding to biotinylated c-jun could attenuate or abolish this chemical luminescent reaction.
# Yang DD, Kuan CY, Whitmarsh AJ, Rincon M, Zheng TS, Davis RJ, Rakic P and Flavell RA (1997) Absence of excitotoxicity-induced apoptosis in the hippocampus of mice lacking the Jnk3 gene. Nature 389:865-870. [PMID: 9349820]
# Herdegen T, Claret FX, Kallunki T, Martin-Villalba A, Winter C, Hunter T, and Karin M (1998) Lasting N-terminal phosphorylation of c-Jun and activation of c-Jun N-terminal kinases after neuronal injury. J.Neurosci. 18:5124-5135. [PMID: 9651196]
# Xia XG, Harding T, Weller M, Bieneman A, Uney JB and Schulz JB (2001) Gene transfer of the JNK interacting protein-1 protects dopaminergic neurons in the MPTP model of Parkinson's disease. Proc.Natl.Acad.Sci.U.S.A. 98:10433-10438.
# NCGC Assay Protocol Summary:
# GST-cJun (1-79) (Stratagene, La Jolla CA, #205145) was biotnylated by PerkinElmer (PerkinElmer-BioSignalInc. Montreal, Canada) and was detectable by the streptavidin Donor beads. Anti-(phospho)cJun (Ser73) antibody was from UpState (Charlottesvilles, VA, #06-659). JNK3-containing lysates were generated from HepG2 cells and pre-activated by interleukin1-beta and tumor necrosis factor alpha. All reagents were stored at -20 C before using. Phosphorylated biotinylated-GST-cJun was recognized by Anti-(phospho)cJun (Ser73) antibody and this process brings acceptor and donor beads together. Therefore JNK3 phosphorylation of cJun can be measured by Alpha reading by EnVision (PerkinElmer, Boston, MA).
# The composition of kinase buffer was (in mM) 20 tris- HCl (pH 7.6) 10 MgCl2, 1 DTT, and 0.1 Na3VO4 and 0.01% Tween-20. Beads were diluted in detection buffer containing (in mM) 20 tris-HCl (pH 7.7), 20 NaCl and 80 EDTA and 0.3% BSA. The assay was performed at room temperature. All compounds were screened as titrations from 0.6 nM to 46 uM final concentration. The assay was performed in 1536-well format (white solid bottom and untreated) as follows:
# Sequence,Parameter,Value,Description
# 1,Reagent,3 uL,Biotin-GST-cJun, Anti-(phospho)cJun and pre-activated JNK3-containing lysates
# 2,Compound,23 nL,Final concentration was 0.6nM to 46uM
# 3,Time,15 minutes,Room Temperature
# 4,Reagent,1 uL,ATP final concentration 10uM
# 6,Reagent,0.5 uL,2ng/well bead mixture
# […]
# On the % scale 0 is the no-effect control and ±100 the full control effect.
row,Compound,"activity change, negative = inhibition"
1,Cc1ccc([N+](=O)[O-])cc1[N+](=O)[O-],inactive: -11.5%
2,CCC(C)(OO)OOC(C)(CC)OO (stereo not drawn),inactive: 10.6%
3,Cc1c([N+](=O)[O-])cccc1[N+](=O)[O-],inactive: 17.1%
4,[NH4+].[O-][Cl+3]([O-])([O-])[O-],inactive: 0.491%
5,NNC(NN)NN.n1nc(-c2nn[nH]n2)n[nH]1,inactive: 1.31% [at 11.4 µM]
6,O=[N+]([O-])[O-].[NH4+],inactive: -4.3%
7,N#[O+].[C-]#N.[C-]#N.[C-]#N.[C-]#N.[C-]#N.[Fe+2].[Na+].[Na+],inactive: -13%
8,CCOP(=O)(CC)OCC,inactive: 12.5%
9,C/C1=C2N=C(/C=C3N=C(/C(C)=C4\[N-][C@@](C)([C@H]5N=C1[C@@](C)(CCC(=O)NC[C@H](C)OP(=O)([O-])O[C@@H]1[C@H](O)[C@H](n6cnc7cc(C)c(C)cc76)O[C@@H]1CO)[C@@H]5CC(N)=O)[C@](C)(CC(N)=O)[C@H]4CCC(N)=O)[C@@](C)(CC(N)=O)[C@@H]\3CCC(N)=O)C(C)(C)[C@@H]/2CCC(N)=O.[C-]#N.[Co+3],inactive: -7.23% [at 25.6 µM]
10,Cc1cccc([N+](=O)[O-])c1[N+](=O)[O-],inactive: 2.99%
11,O=[N+]([O-])c1cccc([N+](=O)[O-])c1,inactive: 22.7%
12,N1=C(c2nnc(-c3nn[nH]n3)nn2)NNN1,inactive: 4.55% [at 11.4 µM]
13,Cc1ccc([N+](=O)[O-])c([N+](=O)[O-])c1,inactive: -1.48%
